Test: Safety and tolerability (AEs by CTCAE v4.0, DLTs, laboratory, ECG/ECHO, ophthalmic) in Phase I study NCT01213160
Format: in vivo, human
Description: A ‘rolling six’ design was used, with a minimum of three evaluable patients per cohort. If one patient experienced a dose-limiting toxicity (DLT), additional patients were enrolled up to a maximum of six evaluable patients. DLTs were evaluated during the washout period and the first 21-day treatment schedule. […] If two or more evaluable patients experienced a DLT, this dosing level was considered as non-tolerable. It was planned that the maximum tolerated dose (MTD) would be defined either as the dosing level below the non-tolerated dose or such that a dose between the non-tolerated dose and the last tolerated dose may be investigated. Patients who tolerated AZD4547 treatment and received clinical benefit were permitted to continue treatment until they experienced progressive disease or withdrew consent.
Safety and tolerability were assessed during study treatment and until 28 days after the final dose. Adverse events (AEs) were evaluated according to CTCAE (version 4.0), and dose interruptions and reductions were recorded. Laboratory findings and vital signs were analysed. Cardiac monitoring (echocardiogram [ECHO] and ECG) and ophthalmic assessments were also conducted.

Q: For AZD4547, which “Median change in phosphate levels from baseline” value (80 mg bid cohort (combined from Parts A and B)) is on record?
A: –0.16 to 0.79 mmol/L

Q: And the “Median change in phosphate levels from baseline” value (160 mg qd cohort)?
A: –0.29 to 0.72 mmol/L

Q: And the Tolerability (Japanese patients, whole study)?
A: well tolerated

Q: What about the “Detachment of retinal pigment epithelium, patients” value (Part A) of the same substance?
A: 23.3%

Q: What about the “Diarrhoea, patients” value (Part A) of the same substance?
A: 40.0%

Q: What about the “Dry mouth, patients” value (Part A) of the same substance?
A: 33.3%

Q: And the “Dry skin, patients” value (Part A)?
A: 30.0%

Q: What about the “Dysgeusia, patients” value (Part A) of the same substance?
A: 46.7%

Q: What about the “Hyperphosphataemia, patients” value (Part A) of the same substance?
A: 36.7%

Q: And the “Malaise, patients” value (Part A)?
A: 20.0%

Q: What about the “Nail discolouration, patients” value (Part A) of the same substance?
A: 20.0%

Q: And the “Nausea, patients” value (Part A)?
A: 26.7%

Q: And the “Patients with AE of CTCAE grade ≥3 judged causally related to study treatment” value (Part A)?
A: 3.3%

Q: What about the “Patients with SAEs” value (Part A) of the same substance?
A: 6.7%

Q: And the “Patients with dose interruptions following AEs” value (Part A)?
A: 30.0%

Q: What about the “Patients with treatment-related increases in blood phosphate levels” value (Part A) of the same substance?
A: 36.7%

Q: And the “Pruritus, patients” value (Part A)?
A: 20.0%

Q: What about the “Stomatitis, patients” value (Part A) of the same substance?
A: 40.0%

Q: And the “Vomiting, patients” value (Part A)?
A: 20.0%

Q: What about the “AE leading to discontinuation, patients” value (Part A (9/30)) of the same substance?
A: 30.0%

Q: What about the “Decreased appetite, AE of any grade” value (Part A, 40 mg bid (N = 3)) of the same substance?
A: 1 (33.3) n (%)

Q: What about the “Decreased appetite, CTCAE grade ≥3 event (first line, r20)” value (shortened to “Decreased appetite … (first line, r20)”) (Part A, 40 mg bid (N = 3)) of the same substance?
A: 0 (0) n (%)

Q: What about the “Decreased appetite, CTCAE grade ≥3 event (second line, r24)” value (“Decreased appetite … (second line, r24)” below) (Part A, 40 mg bid (N = 3)) of the same substance?
A: 0 (0) n (%)

Q: What about the “Decreased appetite, SAE grade ≥3 event” value (Part A, 40 mg bid (N = 3)) of the same substance?
A: 0 (0) n (%)

Q: What about the “Detachment of retinal pigment epithelium, AE of any grade” value (shortened to “Detachment … of any grade”) (Part A, 40 mg bid (N = 3)) of the same substance?
A: 0 (0) n (%)

Q: And the “Diarrhoea, AE of any grade” value (Part A, 40 mg bid (N = 3))?
A: 0 (0) n (%)

Q: And the “Dry mouth, AE of any grade” value (Part A, 40 mg bid (N = 3))?
A: 0 (0) n (%)

Q: What about the “Dry skin, AE of any grade” value (Part A, 40 mg bid (N = 3)) of the same substance?
A: 1 (33.3) n (%)

Q: What about the “Dysgeusia, AE of any grade” value (Part A, 40 mg bid (N = 3)) of the same substance?
A: 0 (0) n (%)

Q: And the “Hyperphosphataemia, AE of any grade” value (Part A, 40 mg bid (N = 3))?
A: 0 (0) n (%)

Q: And the “Hypoglycaemia, CTCAE grade ≥3 event” value (Part A, 40 mg bid (N = 3))?
A: 0 (0) n (%)

Q: What about the “Increased alanine aminotransferase, CTCAE grade ≥3 event” value (shortened to “Increased alanine aminotransferase”) (Part A, 40 mg bid (N = 3)) of the same substance?
A: 0 (0) n (%)

Q: And the “Malaise, AE of any grade” value (Part A, 40 mg bid (N = 3))?
A: 0 (0) n (%)

Q: What about the “Nausea, AE of any grade” value (Part A, 40 mg bid (N = 3)) of the same substance?
A: 1 (33.3) n (%)

Q: And the “Nausea, CTCAE grade ≥3 event” value (Part A, 40 mg bid (N = 3))?
A: 0 (0) n (%)

Q: What about the “Nausea, SAE grade ≥3 event” value (Part A, 40 mg bid (N = 3)) of the same substance?
A: 0 (0) n (%)

Q: And the “Neutropenia, CTCAE grade ≥3 event” value (Part A, 40 mg bid (N = 3))?
A: 0 (0) n (%)

Q: And the “Patients with AE of any grade” value (Part A, 40 mg bid (N = 3))?
A: 3 (100) n (%)

Q: And the “Patients with CTCAE grade ≥3 event” value (Part A, 40 mg bid (N = 3))?
A: 0 (0) n (%)

Q: What about the “Patients with SAE grade ≥3 event” value (Part A, 40 mg bid (N = 3)) of the same substance?
A: 0 (0) n (%)

Q: And the “Pneumonia, CTCAE grade ≥3 event” value (Part A, 40 mg bid (N = 3))?
A: 0 (0) n (%)

Q: And the “Stomatitis, AE of any grade” value (Part A, 40 mg bid (N = 3))?
A: 1 (33.3) n (%)

Q: What about the “Stomatitis, CTCAE grade ≥3 event” value (Part A, 40 mg bid (N = 3)) of the same substance?
A: 0 (0) n (%)

Q: And the “Stomatitis, SAE grade ≥3 event” value (Part A, 40 mg bid (N = 3))?
A: 0 (0) n (%)

Q: And the “Vomiting, AE of any grade” value (Part A, 40 mg bid (N = 3))?
A: 0 (0) n (%)

Q: What about the “Decreased appetite, AE of any grade” value (Part A, 80 mg bid (N = 6)) of the same substance?
A: 1 (16.7) n (%)

Q: What about the “Decreased appetite … (first line, r20)” value (Part A, 80 mg bid (N = 6)) of the same substance?
A: 1 (16.7) n (%)

Q: What about the “Decreased appetite … (second line, r24)” value (Part A, 80 mg bid (N = 6)) of the same substance?
A: 1 (16.7) n (%)

Q: And the “Decreased appetite, SAE grade ≥3 event” value (Part A, 80 mg bid (N = 6))?
A: 0 (0) n (%)

Q: What about the “Detachment … of any grade” value (Part A, 80 mg bid (N = 6)) of the same substance?
A: 0 (0) n (%)

Q: And the “Diarrhoea, AE of any grade” value (Part A, 80 mg bid (N = 6))?
A: 2 (33.3) n (%)

Q: What about the “Dry mouth, AE of any grade” value (Part A, 80 mg bid (N = 6)) of the same substance?
A: 3 (50.0) n (%)

Q: And the “Dry skin, AE of any grade” value (Part A, 80 mg bid (N = 6))?
A: 2 (33.3) n (%)

Q: And the “Dysgeusia, AE of any grade” value (Part A, 80 mg bid (N = 6))?
A: 2 (33.3) n (%)

Q: And the “Hyperphosphataemia, AE of any grade” value (Part A, 80 mg bid (N = 6))?
A: 1 (16.7) n (%)

Q: What about the “Hypoglycaemia, CTCAE grade ≥3 event” value (Part A, 80 mg bid (N = 6)) of the same substance?
A: 0 (0) n (%)

Q: And the “Increased alanine aminotransferase” value (Part A, 80 mg bid (N = 6))?
A: 1 (16.7) n (%)

Q: And the “Malaise, AE of any grade” value (Part A, 80 mg bid (N = 6))?
A: 2 (33.3) n (%)

Q: What about the “Nausea, AE of any grade” value (Part A, 80 mg bid (N = 6)) of the same substance?
A: 2 (33.3) n (%)

Q: What about the “Nausea, CTCAE grade ≥3 event” value (Part A, 80 mg bid (N = 6)) of the same substance?
A: 2 (33.3) n (%)

Q: What about the “Nausea, SAE grade ≥3 event” value (Part A, 80 mg bid (N = 6)) of the same substance?
A: 0 (0) n (%)

Q: And the “Neutropenia, CTCAE grade ≥3 event” value (Part A, 80 mg bid (N = 6))?
A: 2 (33.3) n (%)

Q: What about the “Patients with AE of any grade” value (Part A, 80 mg bid (N = 6)) of the same substance?
A: 6 (100) n (%)

Q: What about the “Patients with CTCAE grade ≥3 event” value (Part A, 80 mg bid (N = 6)) of the same substance?
A: 3 (50.0) n (%)

Q: What about the “Patients with SAE grade ≥3 event” value (Part A, 80 mg bid (N = 6)) of the same substance?
A: 0 (0) n (%)

Q: And the “Pneumonia, CTCAE grade ≥3 event” value (Part A, 80 mg bid (N = 6))?
A: 0 (0) n (%)

Q: What about the “Stomatitis, AE of any grade” value (Part A, 80 mg bid (N = 6)) of the same substance?
A: 4 (66.7) n (%)

Q: And the “Stomatitis, CTCAE grade ≥3 event” value (Part A, 80 mg bid (N = 6))?
A: 1 (16.7) n (%)

Q: What about the “Stomatitis, SAE grade ≥3 event” value (Part A, 80 mg bid (N = 6)) of the same substance?
A: 0 (0) n (%)

Q: What about the “Vomiting, AE of any grade” value (Part A, 80 mg bid (N = 6)) of the same substance?
A: 2 (33.3) n (%)

Q: And the “Decreased appetite, AE of any grade” value (Part A, 120 mg bid (N = 6))?
A: 1 (16.7) n (%)

Q: What about the “Detachment … of any grade” value (Part A, 120 mg bid (N = 6)) of the same substance?
A: 0 (0) n (%)

Q: What about the “Diarrhoea, AE of any grade” value (Part A, 120 mg bid (N = 6)) of the same substance?
A: 5 (83.3) n (%)

Q: What about the “Dry mouth, AE of any grade” value (Part A, 120 mg bid (N = 6)) of the same substance?
A: 2 (33.3) n (%)

Q: And the “Dry skin, AE of any grade” value (Part A, 120 mg bid (N = 6))?
A: 2 (33.3) n (%)

Q: And the “Dysgeusia, AE of any grade” value (Part A, 120 mg bid (N = 6))?
A: 5 (83.3) n (%)

Q: And the “Hyperphosphataemia, AE of any grade” value (Part A, 120 mg bid (N = 6))?
A: 3 (50.0) n (%)

Q: What about the “Malaise, AE of any grade” value (Part A, 120 mg bid (N = 6)) of the same substance?
A: 2 (33.3) n (%)

Q: What about the “Nausea, AE of any grade” value (Part A, 120 mg bid (N = 6)) of the same substance?
A: 1 (16.7) n (%)

Q: And the “Patients with AE of any grade” value (Part A, 120 mg bid (N = 6))?
A: 6 (100) n (%)

Q: What about the “Stomatitis, AE of any grade” value (Part A, 120 mg bid (N = 6)) of the same substance?
A: 4 (66.7) n (%)

Q: And the “Vomiting, AE of any grade” value (Part A, 120 mg bid (N = 6))?
A: 2 (33.3) n (%)

Q: And the “Discontinuation for AEs, patients” value (Part A, 160 mg qd)?
A: 6 n

Q: And the “Decreased appetite, AE of any grade” value (Part A, 160 mg qd (N = 15))?
A: 2 (13.3) n (%)

Q: What about the “Decreased appetite … (first line, r20)” value (Part A, 160 mg qd (N = 15)) of the same substance?
A: 0 (0) n (%)

Q: And the “Decreased appetite … (second line, r24)” value (Part A, 160 mg qd (N = 15))?
A: 0 (0) n (%)

Q: What about the “Decreased appetite, SAE grade ≥3 event” value (Part A, 160 mg qd (N = 15)) of the same substance?
A: 0 (0) n (%)

Q: And the “Diarrhoea, AE of any grade” value (Part A, 160 mg qd (N = 15))?
A: 5 (33.3) n (%)

Q: What about the “Dry mouth, AE of any grade” value (Part A, 160 mg qd (N = 15)) of the same substance?
A: 5 (33.3) n (%)

Q: And the “Dry skin, AE of any grade” value (Part A, 160 mg qd (N = 15))?
A: 4 (26.7) n (%)

Q: What about the “Hypoglycaemia, CTCAE grade ≥3 event” value (Part A, 160 mg qd (N = 15)) of the same substance?
A: 0 (0) n (%)

Q: And the “Increased alanine aminotransferase” value (Part A, 160 mg qd (N = 15))?
A: 0 (0) n (%)

Q: And the “Malaise, AE of any grade” value (Part A, 160 mg qd (N = 15))?
A: 2 (13.3) n (%)

Q: What about the “Nausea, AE of any grade” value (Part A, 160 mg qd (N = 15)) of the same substance?
A: 4 (26.7) n (%)

Q: What about the “Nausea, CTCAE grade ≥3 event” value (Part A, 160 mg qd (N = 15)) of the same substance?
A: 0 (0) n (%)
